Assay results reported in US20210393742A1, “LONG-ACTING INTERLEUKIN-15 RECEPTOR AGONIST IN COMBINATION WITH ANOTHER PHARMACOLOGICALLY ACTIVE AGENT” (Nektar Therapeutics, priority 2018, published 2021).

What was measured:
Assay type in all cases: in vivo, mice
SKOV-3 cells = experiment: Tumor growth inhibition in SKOV-3 ovarian carcinoma model (Example 21); settings: trastuzumab 13.5 mg/kg IV x6, Compound 1 0.3 mg/kg IV x3
Method: Balb/c nude mice (N=10/group) inoculated subcutaneously on flank with 10 million SKOV-3 cells mixed with matrigel in 1:1 ratio were treated with total of six doses of trastuzumab (13.5 mg/kg, IV, administered twice a week for 3 weeks starting on day 6 after inoculation) and a total of three doses of mono(methoxyPEG-N-butanamide)40 kD interleukin-15 (Compound 1) (0.3 mg/kg, intravenous), administered 6, 13 and 20 days after tumor inoculation). Tumor growth inhibition in inoculated mice was measured 35 days after treatment initiation. Results are provided graphically in FIG. 24.

NCI-N87 cells = experiment: Tumor growth inhibition in NCI-N87 gastric carcinoma model (Example 22); settings: 25 days after treatment initiation; trastuzumab 3/1/1 mg/kg IV; Compound 1 0.3 mg/kg IV x3
Method: Balb/c nude mice (N=10/group) inoculated subcutaneously on flank with 10 million NCI-N87 cells mixed with matrigel in 1:1 ratio were treated with total of three doses of trastuzumab (first dose 3 mg/kg and subsequent two doses 1 mg/kg, IV, administered 5, 12 and 20 days after inoculation) and a total of three doses of mono(methoxyPEG-N-butanamide)40 kD interleukin-15 (Compound 1) (0.3 mg/kg, intravenous), administered 5, 12 and 19 days after tumor inoculation. Tumor growth inhibition in inoculated mice was measured 25 days after treatment initiation. Results are provided graphically in FIG. 25.

[1] = test system: H1975 lung carcinoma cells; experiment: Tumor growth in H1975 lung tumor model (Example 17); settings: day 27 after treatment initiation; cetuximab 0.25 mg/kg IP x3; Compound 1 0.3 mg/kg IV x3
Method: Balb/c nude mice (N=10/group) inoculated subcutaneously on flank with 5 million H1975 cells were treated with total of 3 doses of cetuximab (0.25 mg/kg, IP, administered 9, 12 and 16 days after inoculation) and a total of three doses of mono(methoxyPEG-N-butanamide)40 kD interleukin-15 (Compound 1) (0.3 mg/kg, intravenous), administered 9, 16 and 23 days after tumor inoculation. Delay in loss of tumor growth control was evaluated on day 27 after treatment initiation. Results are provided graphically in FIG. 20.

[2] = test system: HT-29 colorectal carcinoma cells; experiment: Tumor growth inhibition and delay in HT-29 colorectal carcinoma model (Example 18); settings: day 21 after treatment initiation; cetuximab 40 mg/kg IP x6; Compound 1 0.3 mg/kg IV x3
Method: (§1) SCID mice (N=8/group) inoculated subcutaneously on flank with 5 million HT-29 cells were treated with total of six doses of cetuximab (40 mg/kg, IP, administered 7, 11, 14, 18, 21, 25 days after inoculation) and a total of three doses of mono(methoxyPEG-N-butanamide)40 kD interleukin-15 (Compound 1) (0.3 mg/kg, intravenous), administered 7, 14 and 21 days after tumor inoculation. Tumor growth inhibition was evaluated on day 21 after treatment initiation. Results are provided graphically in FIG. 21A.
The tumor growth delay (TVQT) was evaluated with the endpoint set as 400% tumor growth from baseline.

[3] = test system: HCT-116 colorectal carcinoma cells; experiment: Tumor growth inhibition and delay in HCT-116 colorectal carcinoma xenograft model (Example 19)
Method: as §1, with “million HCT-116” for “million HT-29”, “mg/kg, intravenously,” for “mg/kg, intravenous),”, “tumor inoculation).” for “tumor inoculation.”, “day 19” for “day 21”, “FIG. 22A.” for “FIG. 21A.”
The tumor growth delay was evaluated by measuring tumor volume quadrupling time (TVQT) from baseline tumor volume on treatment initiation day.

Q: How did the tumor growth inhibition (SKOV-3 cells; 35 days after treatment initiation) turn out when “Trastuzumab: humanized anti-HER2 monoclonal antibody (Herceptin®, Genentech, Inc.)” was run?
A: 61%

Q: What about the tumor free animals (SKOV-3 cells) of the same substance?
A: no tumor free animals

Q: What about the tumor growth inhibition (NCI-N87 cells) of the same substance?
A: 29%

Q: Which results are given for “cetuximab: anti-EGFR monoclonal antibody (Erbitux®, Lilly USA) [reference compound]”?
A: tumor growth control [1]: resumption of tumor growth after cetuximab treatment schedule had been completed; tumor growth inhibition [2]: no tumor growth inhibition; tumor growth inhibition ([3]; day 19 after treatment initiation, cetuximab 40 mg/kg IP x6, Compound 1 0.3 mg/kg IV x3): no tumor growth inhibition; tumor growth delay (TVQT) ([3]; tumor volume quadrupling time from baseline): no tumor growth delay
